Assay [1] deals with human recombinant 5-HT2C receptor (Homo sapiens (Human), UniProt P28335). Nature of the assay: 5-HT2C receptor binding inhibition test ([3H]-Mesulergine). The note with it: read-out: h-5-HT2C Ki, Jump-In HEK cell membrane, 37° C. 2 hours. The method, then: Test Example 2: 5-HT2C Receptor Binding Inhibition Test
(§1) (Each Experimental Condition)
Cell membrane: 0.5 μg of Jump-In HEK cell membrane (expressing human recombinant 5-HT2C receptor) per well
(§2) Assay buffer: Tris-HCl 50 mmol/L (pH 7.4) containing NaCl 120 mmol/L, MgCl2·6H2O 1 mmol/L, KCl 5 mmol/L, 0.1% BSA and CaCl2 2 mmol/L
Radioactive ligand: [^3H]-Mesulergine with a final concentration of around Kd value calculated by the following method
Non-specific ligand: Serotonin HCl with a final concentration of […]
The Kd value is calculated when the lot of cell membrane is changed. […] The radioactivity of [^3H]-Mesulergine bound to the 5-HT2C receptor is measured using Microbeta2 (PerkinElmer) at a measurement time of 1 min/well. The Saturation curve is drawn from the measured value, and the Kd value is calculated from the slope of the Scatchard Plot. […]
In advance, 0.5 μL of the compound solution dissolved in DMSO is dispensed into a microplate, and the cell membrane and the hot ligand are diluted with Assay buffer, respectively. […] The radioactivity of [^3H]-Mesulergine bound to the 5-HT2C receptor is measured using Microbeta2 (PerkinElmer) at a measurement time of 1 min/well. […] Finally, the Ki value is calculated from the dose-response curve.
(§3) (The binding activity of the compound according to the present invention is calculated from the following binding inhibition rate (%).) […]

The chains behind the UniProt entries cited, without tags or fusion partners. Residues count along the entry.
UniProt P28335, 33-458 limits assumed: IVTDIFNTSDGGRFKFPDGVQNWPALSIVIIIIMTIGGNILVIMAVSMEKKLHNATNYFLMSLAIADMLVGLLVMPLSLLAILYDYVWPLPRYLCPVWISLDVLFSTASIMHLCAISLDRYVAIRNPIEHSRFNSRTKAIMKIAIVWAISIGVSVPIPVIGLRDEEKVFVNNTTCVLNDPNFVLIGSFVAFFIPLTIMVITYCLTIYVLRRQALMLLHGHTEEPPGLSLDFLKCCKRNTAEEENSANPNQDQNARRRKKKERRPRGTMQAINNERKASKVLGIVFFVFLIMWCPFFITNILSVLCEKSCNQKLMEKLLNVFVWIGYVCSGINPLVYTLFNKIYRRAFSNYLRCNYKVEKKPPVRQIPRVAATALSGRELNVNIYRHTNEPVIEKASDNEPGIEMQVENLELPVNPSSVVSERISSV
UniProt P28223, whole entry: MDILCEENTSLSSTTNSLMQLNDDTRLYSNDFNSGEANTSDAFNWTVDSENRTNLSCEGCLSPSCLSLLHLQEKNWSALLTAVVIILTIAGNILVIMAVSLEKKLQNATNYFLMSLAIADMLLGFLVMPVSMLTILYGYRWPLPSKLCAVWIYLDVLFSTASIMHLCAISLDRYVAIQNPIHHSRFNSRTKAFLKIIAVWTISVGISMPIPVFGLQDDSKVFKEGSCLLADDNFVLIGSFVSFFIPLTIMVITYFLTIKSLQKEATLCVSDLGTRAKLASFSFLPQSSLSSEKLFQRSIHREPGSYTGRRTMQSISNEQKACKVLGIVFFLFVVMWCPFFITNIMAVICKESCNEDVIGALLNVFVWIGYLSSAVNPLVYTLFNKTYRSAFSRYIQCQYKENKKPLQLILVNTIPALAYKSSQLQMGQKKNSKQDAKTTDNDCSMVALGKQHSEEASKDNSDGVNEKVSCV

The target of assay [2] is human recombinant 5-HT2A receptor (Homo sapiens (Human), UniProt P28223). Nature of the assay: 5-HT2A receptor binding inhibition test ([3H]-Ketanserin). As to conditions: read-out: h-5-HT2A Ki, Jump-In HEK cell membrane, 25° C. 1.5 hours. The method, then:
Test Example 1: 5-HT2A Receptor Binding Inhibition Test
as §1
Cell membrane: 15 μg of Jump-In HEK cell membrane (expressing human recombinant 5-HT2A receptor) per well
as §2
Radioactive ligand: [^3H]-Ketanserin with a final concentration of around Kd value calculated by the following method
Non-specific ligand: Serotonin HCl with a final concentration of 500 μmol/L
The Kd value is calculated when the lot of cell membrane is changed. […] The radioactivity of [^3H]-Ketanserin bound to the 5-HT2A receptor is measured using Microbeta2 (PerkinElmer) at a measurement time of 1 min/well. The Saturation curve is drawn from the measured value, and the Kd value is calculated from the slope of the Scatchard Plot. […]
In advance, 0.5 μL of the compound solution dissolved in DMSO is dispensed into a microplate, and the cell membrane and the hot ligand are diluted with Assay buffer, respectively. […] The radioactivity of [^3H]-Ketanserin bound to the 5-HT2A receptor is measured using Microbeta2 (PerkinElmer) at a measurement time of 1 min/well. […] Finally, the Ki value is calculated from the dose-response curve.
as §3

For orientation: Ki means the dissociation constant of the complex between target and ligand, obtained from inhibition or displacement.

Consider `Cc1nc(CN(Cc2nc3cc(Br)ccc3o2)C2=NOC3(CCN(C)CC3)N2)co1`, for which the inhibition constant (Ki) in assay [1] and in assay [2] was under 10 nM in each case.
